Reference: ChEMBL document CHEMBL5107967, “Targeting EZH2 for cancer therapy: From current progress to novel strategies” (Eur J Med Chem, 2022)

Chains of the proteins cited; added tags and fusions are not shown.
UniProt Q15910, whole entry: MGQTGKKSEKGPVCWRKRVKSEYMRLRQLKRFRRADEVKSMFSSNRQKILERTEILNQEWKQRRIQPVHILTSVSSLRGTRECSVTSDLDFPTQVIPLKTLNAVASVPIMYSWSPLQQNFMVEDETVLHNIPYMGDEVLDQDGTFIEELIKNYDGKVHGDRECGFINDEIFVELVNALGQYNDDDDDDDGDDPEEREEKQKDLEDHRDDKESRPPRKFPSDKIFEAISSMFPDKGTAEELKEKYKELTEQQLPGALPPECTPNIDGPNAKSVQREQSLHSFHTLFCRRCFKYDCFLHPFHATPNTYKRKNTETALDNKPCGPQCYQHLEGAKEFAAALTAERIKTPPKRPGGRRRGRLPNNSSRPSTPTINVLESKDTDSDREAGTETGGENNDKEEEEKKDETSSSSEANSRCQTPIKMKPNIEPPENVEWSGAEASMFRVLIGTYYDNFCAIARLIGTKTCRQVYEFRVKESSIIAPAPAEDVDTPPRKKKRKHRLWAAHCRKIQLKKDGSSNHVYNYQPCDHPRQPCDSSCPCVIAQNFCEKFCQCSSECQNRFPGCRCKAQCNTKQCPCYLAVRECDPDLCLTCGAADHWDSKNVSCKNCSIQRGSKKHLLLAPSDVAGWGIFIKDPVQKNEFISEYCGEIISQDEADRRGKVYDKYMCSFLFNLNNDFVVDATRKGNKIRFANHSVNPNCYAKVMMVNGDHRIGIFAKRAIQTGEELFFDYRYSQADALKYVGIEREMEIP

Molecular target: Histone-lysine N-methyltransferase EZH2 (Homo sapiens, UniProt Q15910)

- IC50: 24 nM
SMILES: CCN1CCN(c2ccc(-c3cc(C(=O)NCc4c(C)cc(C)[nH]c4=O)c(C)c4c3O[C@](C)(CN3CCOCC3)O4)cn2)CC1
